Experimental data taken from patent US12219958B2, “Glufosinate additive for improved weed control” (THE BOARD OF TRUSTEES OF THE UNIVERSITY OF ARKANSAS, priority 2019, dated 2025).

Key:
[1] = tested on: native mixture of Palmer amaranth and waterhemp; experiment: Field experiment, visual Palmer amaranth/waterhemp control (Example 2, FIG. 5); format: in vivo, Amaranthus palmeri, Amaranthus tuberculatus
[2] = tested on: native large crabgrass populations; experiment: Field experiment, large crabgrass control (Examples 2 and 3, FIG. 6); format: in vivo
[3] = tested on: Palmer amaranth; experiment: Field experiment, Palmer amaranth control with glufosinate + additive at 10 pm (Example 5, FIG. 11); format: in vivo, Amaranthus palmeri; details: low-light conditions (10 pm); glufosinate 655 g ai/ha + additive 280 g ai/ha; 25 to 30-cm tall Palmer amaranth
[4] = tested on: johnsongrass; experiment: Field experiment, johnsongrass control with glufosinate + additive at 10 pm (Example 5, FIG. 12); format: in vivo; details: low-light conditions (10 pm); glufosinate 655 g ai/ha + additive 280 g ai/ha; 15 to 20-cm tall johnsongrass
[5] = tested on: Enlist cotton, XtendFlex cotton, LibertyLink GT27 soybean, and LibertyLink corn; details: 10 pm; glufosinate 655 g ai/ha + additive 280 g ai/ha
[6] = tested on: native Virginia buttonweed population; experiment: Field experiment, Virginia buttonweed control (Examples 2 and 3, FIG. 7); details: NBD-CL 269 g ai/ha + NIS 0.25% v/v without glufosinate; 10 am, 10 pm; 20 days after application
[7] = low-light conditions (10 pm), glufosinate 655 g ai/ha + NBD-CL 269 g ai/ha + NIS 0.25% v/v

`O=[N+]([O-])c1ccc(Cl)c2nonc12` was tested, and the “herbicidal activity on its own” value ([1]; NBD-CL 269 g ai/ha + NIS 0.25% v/v without glufosinate, 10 am, 10 pm, 21 days after application) was “does not have herbicidal activity”, the “Palmer amaranth and waterhemp control with glufosinate+NIS on addition of the additive” value [1, 7] was “increased” and the “herbicidal activity on its own” value ([2]; NBD-CL 269 g ai/ha + NIS 0.25% v/v without glufosinate, 10 am, 10 pm, 20 days after application) was “does not have herbicidal activity”. The “large crabgrass control with glufosinate+NIS on addition of the additive” value [2, 7] was “increased”, the “increase in glufosinate efficacy of Palmer amaranth” value [3] was “greatest increase” and the “increase in glufosinate efficacy of johnsongrass” value [4] was “greatest increase”. For the same molecule, the crop response [5] was “not eliciting a negative crop response” and the “herbicidal activity on its own” value [6] was “does not have herbicidal activity”.
